Laboratory results: EP4831199A1, “IMMUNE-STIMULATING ANTIBODY CONJUGATE, PREPARATION METHOD THEREFOR, AND USE THEREOF” (dated 2026)

Chains of the proteins cited; added tags and fusions are not shown.
UniProt Q3TBT3, whole entry: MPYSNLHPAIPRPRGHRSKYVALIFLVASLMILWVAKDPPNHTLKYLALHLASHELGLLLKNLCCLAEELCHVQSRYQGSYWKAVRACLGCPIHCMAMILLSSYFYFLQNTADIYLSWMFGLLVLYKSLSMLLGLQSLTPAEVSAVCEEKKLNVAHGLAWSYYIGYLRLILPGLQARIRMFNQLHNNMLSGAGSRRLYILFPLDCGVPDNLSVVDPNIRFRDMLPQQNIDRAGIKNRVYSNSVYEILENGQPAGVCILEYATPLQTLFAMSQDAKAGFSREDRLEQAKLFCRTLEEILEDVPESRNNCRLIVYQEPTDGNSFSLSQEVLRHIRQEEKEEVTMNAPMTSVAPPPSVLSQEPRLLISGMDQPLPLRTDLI
UniProt Q86WV6, whole entry: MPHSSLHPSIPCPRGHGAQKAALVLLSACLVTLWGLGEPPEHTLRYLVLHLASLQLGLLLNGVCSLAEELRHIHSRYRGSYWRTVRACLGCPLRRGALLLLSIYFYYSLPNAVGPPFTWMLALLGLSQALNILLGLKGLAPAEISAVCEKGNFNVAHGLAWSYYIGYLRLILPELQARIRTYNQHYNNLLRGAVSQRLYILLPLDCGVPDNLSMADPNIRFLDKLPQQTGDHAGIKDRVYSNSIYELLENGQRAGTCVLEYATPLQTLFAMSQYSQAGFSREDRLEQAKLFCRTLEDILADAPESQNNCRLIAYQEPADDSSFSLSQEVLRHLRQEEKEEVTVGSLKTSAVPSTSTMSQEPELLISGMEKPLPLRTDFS

Tests used:
[1] = molecular target: cytokine mIFN-β of the STING pathway in murine Raw264.7 cells (Mus musculus, UniProt Q3TBT3); assay: Expression of cytokine mIFN-β of the STING pathway in Raw264.7 cells (ELISA); settings: amount of secreted mIFN-β at the maximum activation effect
Description: In this experiment, the expression of the cytokine mIFN-β of the STING signaling pathway in Raw264.7 cells (Nanjing Cobioer) was measured by ELISA to assess the agonistic effects of the test compounds on the expression of the cytokine mIFN-β of the STING pathway at the cellular level.
Raw264.7 cells (Nanjing Cobioer) in the logarithmic growth phase were centrifuged and resuspended in a cell culture medium to a density of 8 × 10^6 cells/mL, and the cell suspension was seeded into 24-well cell culture plates (Corning) at 250 µL/well. The test compounds were diluted with the cell culture medium to obtain 2× working concentration dilutions with concentrations of 200 µM, 66.67 µM, 22.22 µM, 7.41 µM, 2.47 µM, 0.82 µM, 0.27 µM, 0.09 µM, and 0 µM. The dilutions of the test compounds (250 µL) were added to the 24-well plates (the final concentration of DMSO was 1%). After the dilutions were well mixed with cells, the plates were incubated in a cell incubator for 6 h. After the cell incubation, the plates were centrifuged at 300 g for 5 min, and the supernatants were collected. 100 µL of the cell culture solution was collected using a pipette and incubated with a primary antibody and an HRP-labeled secondary antibody according to the procedures of a mouse IFN-β ELISA kit (PBL-42400-2), and color development was performed. The absorbance at a wavelength of 450 nm (OD450 nm) was measured.
EC50 was calculated by log(agonist) vs. response -- Variable slope fitting in Graphpad Prism software. Emax was the amount of secreted mIFN-β where the maximum activation effect of the present test drug was achieved.

[2] = molecular target: STING-mediated interferon (IFN) signaling pathway (Homo sapiens, UniProt Q86WV6); assay: Agonistic effect on STING-mediated IFN signal SEAP reporter gene in THP1-Blue ISG cells; settings: for EC50: 16 h incubation, SEAP reporter, QUANTI-Blue; for Emax (OD620nm): OD620 nm value at the maximum activation effect
Description: In this experiment, the activity of the secreted embryonic alkaline phosphatase (SEAP) reporter gene, which is regulated by interferon (IFN) regulatory factors, in THP1-Blue™ ISG cells (InvivoGen) was measured to assess the agonistic effects of the test compounds on the STING-mediated IFN signaling pathway at the cellular level.
THP1-Blue™ ISG cells (InvivoGen) in the logarithmic growth phase were centrifuged and resuspended in a cell culture medium to a density of 2 × 10^6 cells/mL, and the cell suspension was seeded into a 96-well cell culture plate (Corning) at 50 µL/well. Stock solutions of the compounds were serially diluted with the cell culture medium to obtain 2× working concentration dilutions with concentrations of 60 µM, 7.5 µM,0.94 µM, 0.12 µM, 0.015 µM, 0.0018 µM, 0.00023 µM, 0.00003 µM, and 0 µM. The 2× working concentration dilutions of the compounds were added to the 96-well plate at 50 µL/well (the final concentration of DMSO was 1%). The culture plate was incubated in a cell incubator for 16 h. After the cell incubation, the cell culture supernatants (10 µL) were transferred to a 96-well plate, and a QUANTI-Blue (InvivoGen) solution was added at 90 µL/well. The plate was incubated at 37 °C for 3 h, and the absorbance at 620 nm (OD620 nm) was measured using a microplate reader (BMG LABTECH).
EC50 was calculated by log(agonist) vs. response -- Variable slope fitting in Graphpad Prism software. Emax was the OD620 nm value where the maximum activation effect of the present test drug was achieved.

Row | Emax [1] | EC50 [2] | Emax (OD620nm) [2] | Compound
1 | 1706 pg/mL | 79 nM | 1.25 OD620nm | COc1cc2cc(C(=O)N(C)CCC(=O)O)sc2cc1OCCCOc1cc2cc(C(=O)CCC(=O)O)sc2cc1O
2 | 1523 pg/mL | 348 nM | 1.51 OD620nm | COc1cc2sc(C(=O)N(C)CCC(=O)O)cc2cc1OCCCOc1cc2sc(C(=O)CCC(=O)O)cc2cc1O
3 |  | 626 nM | 1.22 OD620nm | COc1cc2sc(C(=O)N(C)CCC(=O)O)cc2cc1OCCCCOc1cc2cc(C(=O)CCC(=O)O)sc2cc1O
4 | 2230 pg/mL | 68 nM | 1.67 OD620nm | COc1cc2sc(C(=O)N(C)CCC(=O)O)cc2cc1OCCCOc1cc2cc(C(=O)CCC(=O)O)sc2cc1O
